The values that follow are results of earlier work, collected in paper PMC5653298.

This data set concerns the target Mesothelin (Homo sapiens) (UniProt Q13421).

As to Amatuximab, the Kd was 1.5 nM.

As a reminder, the Kd is the constant that tells how readily two partners part at equilibrium.
